Protein sequences, listed by entry. Tags and fused reporters are not part of them.
UniProt P00439, whole entry R408W: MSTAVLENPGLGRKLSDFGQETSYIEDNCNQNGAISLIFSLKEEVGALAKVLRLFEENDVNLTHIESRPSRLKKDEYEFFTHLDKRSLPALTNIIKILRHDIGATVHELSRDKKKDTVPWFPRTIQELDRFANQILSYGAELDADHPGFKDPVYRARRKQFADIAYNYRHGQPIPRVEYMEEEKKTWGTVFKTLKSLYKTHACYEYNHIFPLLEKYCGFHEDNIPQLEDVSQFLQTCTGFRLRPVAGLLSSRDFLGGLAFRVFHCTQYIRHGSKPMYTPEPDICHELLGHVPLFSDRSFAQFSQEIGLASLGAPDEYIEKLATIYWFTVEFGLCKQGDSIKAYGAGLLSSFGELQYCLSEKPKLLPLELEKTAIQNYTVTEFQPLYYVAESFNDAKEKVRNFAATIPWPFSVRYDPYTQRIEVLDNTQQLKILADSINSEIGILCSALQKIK

In patent US20250171438A1 (Agios Pharmaceuticals, Inc., priority 2022, published 2025):

Biological target: human PAH with the R408W mutation (Homo sapiens, UniProt P00439, R408W)
Assay: Cell Based Phenylalanine Flux Assay
Conditions: A375 cells expressing human R408W PAH; 24 hrs compound incubation; 13C-Tyrosine by LC-MS; average where tested multiple times

Fc1ccc2nc(C3c4nc[nH]c4CCN3Cc3nccs3)[nH]c2c1 (stereo not shown)
AC50: > 5 µM
